From ChEMBL document CHEMBL5726224, “Aminoester derivatives” (2017) come the findings set out here.

Amino acid sequences for entries named in this document (tags omitted). A change or cut given only in a name is not applied to a line headed by its entry.
UniProt Q07343: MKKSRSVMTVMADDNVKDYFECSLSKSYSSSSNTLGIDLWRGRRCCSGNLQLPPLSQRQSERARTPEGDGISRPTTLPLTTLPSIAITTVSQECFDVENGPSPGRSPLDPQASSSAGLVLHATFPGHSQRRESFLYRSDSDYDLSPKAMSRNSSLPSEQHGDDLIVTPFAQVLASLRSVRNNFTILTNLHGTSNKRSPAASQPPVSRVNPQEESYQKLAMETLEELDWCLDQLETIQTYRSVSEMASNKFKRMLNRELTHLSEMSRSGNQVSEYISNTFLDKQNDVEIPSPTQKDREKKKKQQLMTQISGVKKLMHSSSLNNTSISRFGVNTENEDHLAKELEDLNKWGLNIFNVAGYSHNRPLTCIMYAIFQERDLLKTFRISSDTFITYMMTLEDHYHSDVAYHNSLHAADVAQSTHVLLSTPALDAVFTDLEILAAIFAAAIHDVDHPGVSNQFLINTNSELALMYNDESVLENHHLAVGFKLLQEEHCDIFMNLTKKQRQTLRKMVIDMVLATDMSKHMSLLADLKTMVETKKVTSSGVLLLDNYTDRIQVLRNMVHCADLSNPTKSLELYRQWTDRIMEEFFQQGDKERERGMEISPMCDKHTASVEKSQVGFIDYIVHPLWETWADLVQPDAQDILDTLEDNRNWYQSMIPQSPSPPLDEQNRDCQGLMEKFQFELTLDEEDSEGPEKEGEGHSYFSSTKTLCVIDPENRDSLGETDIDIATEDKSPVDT

The target of this experiment is 3',5'-cyclic-AMP phosphodiesterase 4B (Homo sapiens, UniProt Q07343). Kind of experiment: HTRF Assay: PDE4B2 activity is detected using the LANCE Ultra cAMP homogeneous time resolved fluorescence resonance energy transfer (TR-FRET) assay from Perkin Elmer. The assay is based on the competition between the europium (Eu) chelate-labeled cAMP tracer and sample cAMP for binding sites on cAMP-specific monoclonal antibodies (mAb) labelled with the ULight¿ dye. The assay is carried out in 384-well low volume plates in a volume of 10 μl. Human recombinant PDE4B2 (80 pM) is incubated for 2 h with 3 nM cAMP in buffer containing 1×HBSS, 5 mM HEPES, 3 mM MgCl2, 0.1% BSA, pH 7.4 with or without test compounds. The enzymatic reactions are efficiently stopped by the addition of 500 μM IBMX present in the combined Stop/Detection buffer containing europium (Eu) chelate-labeled cAMP tracer and cAMP-specific monoclonal antibodies (mAb) labelled with the ULight¿ dye. […] IC50 values are determined from competition curves using a non-linear curve fitting program. On the technique in general: TR-FRET usually uses a lanthanide donor and a delayed reading to cut background.

Bounds are passed on as bounds.

Broadly, the IC50 is the concentration that inhibits the measured activity by half. In the case of `CN1CCC(COC(=O)C(NCc2ccc(C(=O)O[C@@H](Cc3c(Cl)c[n+]([O-])cc3Cl)c3ccc(OC(F)F)c(OCC4CC4)c3)s2)c2ccccc2)CC1` (stereo partly specified), the half-maximal inhibitory concentration (IC50) was under 1 nM.
